Data: patent US7348328B2, “MCH antagonists for the treatment of obesity” (Schering Corporation, priority 2001, dated 2008)

Protein sequences, listed by entry. Tags and fused reporters are not part of them. Lines headed by an entry give the natural chain unless they say otherwise; changes in a name come on top.
UniProt Q99705: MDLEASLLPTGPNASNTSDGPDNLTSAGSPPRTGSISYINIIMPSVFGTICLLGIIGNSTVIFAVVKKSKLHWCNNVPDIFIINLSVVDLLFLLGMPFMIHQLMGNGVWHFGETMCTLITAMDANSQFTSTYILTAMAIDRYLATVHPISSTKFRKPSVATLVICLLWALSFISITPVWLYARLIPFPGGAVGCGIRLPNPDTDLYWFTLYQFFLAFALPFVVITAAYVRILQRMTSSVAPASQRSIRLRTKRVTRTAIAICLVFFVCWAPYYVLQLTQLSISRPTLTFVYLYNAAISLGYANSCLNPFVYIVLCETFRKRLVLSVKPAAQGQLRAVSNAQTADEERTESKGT

Biological target: T1, MCH receptor (Homo sapiens, UniProt Q99705)
T1 construct: expressed in transfected cells; host or cells: CHO cells (membranes)
Experiment: MCH Receptor Binding Assay
Conditions: Table 1b, preferred compounds; read-out: MCH R1 Ki
Description: MCH Receptor Binding Assay:
Membranes from CHO cells expressing the MCH receptor were prepared by lysing cells with 5 mM HEPES for 15 min at 4C. Cell lysates were centrifuged ([…], 15 min) and the pellet was resuspended in 5 mM HEPES. For each 96-well plate (Microlite, Dynex Technologies), 1 mg of cell membranes were incubated with 10 mg of wheat germ agglutinin SPA beads (Amersham) for 5 min at 4 C. in a volume of 10 ml of binding buffer (25 mM HEPES, 10 mM MGCl2, 10 mM NaCl, 5 mM MnCl2, 0.1% BSA). The membrane/bead mixture was centrifuged (1500×g, 3.5 min), the supernatant was aspirated, and the pellet was resuspended in 10 ml binding buffer. The centrifugation, aspiration and resuspension were then repeated. […] Nonspecific binding was determined by including 1 μM MCH in the binding reaction. The binding reaction was incubated at room temperature for 2 h. Plates were then analyzed in a TOPCOUNT microplate scintillation counter (Packard). Data was analyzed and Ki values were determined using GraphPad Prim.

| Ki [nM] | SMILES |
| --- | --- |
| 34 | COC(=O)c1cccc([C@@]23CC[C@@H](N(CCN(C(C)C)C(C)C)C(=O)Nc4ccc(F)c(F)c4)CC2C3)c1 (stereo partly drawn) |
| 7 | N#Cc1cccc([C@@]23CC[C@@H](N(CCN4CCC[C@@H]4CO)C(=O)Nc4ccc(F)c(Cl)c4)CC2C3)c1 (stereo partly drawn) |
| 8.7 | N#Cc1cccc([C@]23CC[C@H](N(CC4CCN(C5CCOCC5)CC4)C(=O)Nc4ccc(F)c(Cl)c4)CC2C3)c1 (stereo partly drawn) |
